This note sets out measurements from patent US11541029B2, “High penetration compositions and their applications” (Techfields Pharma Co., Ltd., priority 2008, dated 2023).

The conditions of the series: rat, in vivo.

In the case of `CC(C)Cc1ccc(C(C)C(=O)O)cc1` (stereo not shown) [ibuprofen, 2-(ρ-isobutylphenyl)propionic acid, reference compound], the “ibuprofen in Brain (1 hr)” value was “Not”.
